Results published in PubChem BioAssay AID488847 (NMMLSC, 2010).
Only a part is listed here, and it is no random draw. Active and inactive are the calls of the source.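 The calls were made as follows: active = inhibition of aptamer binding above 40%, roughly 3 SD of noise, on plates passing a quality check; inactive = the rest.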

By UniProt entry, the sequences of proteins in these tests, tags left out.
UniProt P25098, whole entry: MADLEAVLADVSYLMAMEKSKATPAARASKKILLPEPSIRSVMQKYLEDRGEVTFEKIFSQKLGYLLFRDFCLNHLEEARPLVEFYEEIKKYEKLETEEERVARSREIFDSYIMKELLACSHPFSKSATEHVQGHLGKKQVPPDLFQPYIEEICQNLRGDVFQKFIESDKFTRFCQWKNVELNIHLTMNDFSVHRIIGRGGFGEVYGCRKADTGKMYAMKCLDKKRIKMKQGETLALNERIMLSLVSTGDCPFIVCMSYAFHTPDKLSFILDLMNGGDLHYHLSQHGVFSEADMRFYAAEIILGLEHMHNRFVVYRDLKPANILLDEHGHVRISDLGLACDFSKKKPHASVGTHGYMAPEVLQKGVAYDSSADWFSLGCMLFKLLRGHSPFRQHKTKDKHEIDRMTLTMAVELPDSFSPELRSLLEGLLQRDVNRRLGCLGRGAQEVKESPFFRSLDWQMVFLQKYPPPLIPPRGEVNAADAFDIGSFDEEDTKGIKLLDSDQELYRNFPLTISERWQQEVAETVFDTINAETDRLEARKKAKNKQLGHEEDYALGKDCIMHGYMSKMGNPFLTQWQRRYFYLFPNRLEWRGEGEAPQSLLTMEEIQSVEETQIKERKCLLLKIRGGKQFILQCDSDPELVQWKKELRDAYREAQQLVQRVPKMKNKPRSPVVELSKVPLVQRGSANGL

target: Beta-adrenergic receptor kinase 1 (Homo sapiens) (UniProt P25098); test: compounds blocking aptamer binding on GRK2 – biochemical, human GRK2, bead flow cytometry, HTS, primary screen (AID 488847); details: FAM-aptamer displacement from GRK2, at 10 µM, active compounds read high;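 also: median bead fluorescence of bound FAM aptamer so fluorescent compounds give negative values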

Row | Compound | inhibition of aptamer binding
1 | O=C(NCC1(N2CCOCC2)CCCCC1)c1cc2ccccc2o1 | inactive: 0%
2 | Cc1cc(C)cc(N(C(=O)c2ccccc2)C2CCN(C(=O)OC(C)(C)C)CC2)c1 | inactive: 9%
3 | O=C(NCC1(N2CCCCC2)CCCCC1)c1ccc(Cl)nc1 | inactive: 0%
4 | CCOC(=O)N1CCC(Nc2ccc(OC)cc2)CC1 | inactive: 1%
5 | COc1ccc(Cl)cc1C(=O)NCC1(N2CCOCC2)CCCCC1 | inactive: 0%
6 | O=C(OC1CN2CCC1CC2)C1c2ccccc2Oc2ccccc21 (stereo unspecified) | inactive: 1%
7 | O=C(NCC1(N2CCCCC2)CCCCC1)c1ccc(Cl)s1 | inactive: 0%
8 | N#CC1(Nc2ccccc2)CCN(Cc2ccccc2)CC1 | inactive: 0%
9 | O=C(NCC1(N2CCCCC2)CCCCC1)c1cccs1 | inactive: 0%
10 | O=C(NCC1(N2CCCCC2)CCCCC1)c1ccc(=O)[nH]c1 | inactive: 3%
11 | COc1ccc(C(=O)NCC2(N3CCCCC3)CCCCC2)c(OC)c1OC | inactive: 0%
12 | CC(C)(C)OC(=O)N1CCC(N(C(=O)c2ccccc2)c2ccc(F)cc2)CC1 | inactive: 0%
13 | COc1ccc(C(=O)NCC2(N3CCCCC3)CCCCC2)cc1 | inactive: 0%
14 | CSc1ccccc1C(=O)NCC1(N2CCCCC2)CCCCC1 | inactive: 0%
15 | Cc1ccc(OCC(C)C)c(CN(CCCl)CCCl)c1 | inactive: 0%
16 | COc1cc(C(=O)NCC2(N(C)C)CCCCC2)ccc1OC(F)F | inactive: 0%
17 | CCOC(=O)N1CCC(Nc2cccc(C)c2)CC1 | inactive: 1%
18 | CCOc1ccc(C)cc1CN(CCCl)CCCl | inactive: 0%
19 | COc1ccc(NC2CCN(CCc3ccccc3)CC2)c(OC)c1 | inactive: 0%
20 | CCOC(=O)N1CCC(Nc2ccc(F)cc2)CC1 | inactive: 0%
21 | O=C(NCC1(N2CCCCC2)CCCCC1)c1ccc(F)cc1 | inactive: 0%
22 | O=C(NCC1(N2CCCCC2)CCCCC1)c1cccc(C(F)(F)F)c1 | inactive: 0%

Row | Compound | inhibition of aptamer binding
23 | CN1CCN(CCOC(=O)C(O)(c2ccccc2)c2ccccc2)CC1 | inactive: 0%
24 | COc1ccc(NC2CCN(C(=O)OC(C)(C)C)CC2)cc1 | inactive: 0%
25 | COc1cc(C(=O)NCC2(N3CCCCC3)CCCCC2)ccc1OC(F)F | inactive: 0%
26 | O=C(NCC1(N2CCOCC2)CCCCC1)c1cc(=O)[nH]c2ccccc12 | inactive: 3%
27 | O=C(NCC1(N2CCCCC2)CCCCC1)c1ccc(OC(F)F)cc1 | inactive: 0%
28 | O=C(NCC1(N2CCCCC2)CCCCC1)c1cccc([N+](=O)[O-])c1 | inactive: 0%
29 | N#CC1(Nc2ccccc2)CCN(CCc2ccccc2)CC1 | inactive: 0%
30 | CCN1CCC(Nc2ccc(Cl)cc2)CC1 | inactive: 5%
31 | O=C(NCC1(N2CCCCC2)CCCCC1)c1cncc(Br)c1 | inactive: 0%
32 | CN1CCC(Nc2cccc(F)c2)CC1 | inactive: 4%
33 | CCCOc1ccc(C(=O)NCC2(N(C)C)CCCCC2)cc1OC | inactive: 0%
34 | CN(C)c1cccc(C(=O)NCC2(N3CCCCC3)CCCCC2)c1 | inactive: 0%
35 | COc1ccc(CN(CCCl)CCCl)cc1Cl | inactive: 0%
36 | CC(C)c1ccc(NC2CCN(C(=O)OC(C)(C)C)CC2)cc1 | inactive: 0%
37 | O=C(NCC1(N2CCOCC2)CCCCC1)c1cc(F)c(F)cc1Cl | inactive: 0%
38 | COc1cc(OC)c(C(=O)NCC2(N(C)C)CCCCC2)cc1OC | inactive: 0%
39 | N/C(=N\O)c1c(N)no[n+]1[O-] | inactive: 0%
40 | CCOC(=O)N1CCC(Nc2ccc(C)cc2)CC1 | inactive: 0%
41 | O=C(OC1CN2CCC1CC2)C1c2ccccc2C=Cc2ccccc21 (stereo unspecified) | inactive: 0%
42 | CCc1cc(C(=O)NCC2(N3CCCCC3)CCCCC2)sc1C | inactive: 0%
43 | O=C(NCC1(N2CCOCC2)CCCCC1)c1cc(Br)ccc1Cl | inactive: 3%
44 | COc1cc(C(=O)NCC2(N3CCOCC3)CCCCC2)cc(OC)c1C | inactive: 0%

Row | Compound | inhibition of aptamer binding
45 | COc1ccc(C(=O)NCC2(N3CCOCC3)CCCCC2)cc1OC | inactive: 0%
46 | CCCN1CCC(Nc2cc(OC)cc(OC)c2)CC1 | inactive: 0%
47 | c1ccc(CN2CCC(Nc3ccccc3)CC2)cc1 | inactive: 0%
48 | CN(C)C1(CNC(=O)c2cccc(C#N)c2)CCCCC1 | inactive: 0%
49 | CC(C)(C)OC(=O)N1CCC(N(C(=O)c2ccccc2)c2ccc(Cl)cc2)CC1 | inactive: 5%
50 | N#Cc1ccc(C(=O)NCC2(N3CCCCC3)CCCCC2)cc1 | inactive: 0%
51 | CCN1CCC(Nc2cccc(F)c2)CC1 | inactive: 0%
52 | CN(C)c1ccc(C(=O)NCC2(N3CCCCC3)CCCCC2)cc1 | inactive: 5%
53 | O=C(NCC1(N2CCCCC2)CCCCC1)c1ccco1 | inactive: 0%
54 | COc1cc(OC)cc(C(=O)NCC2(N3CCCCC3)CCCCC2)c1 | inactive: 0%
55 | Fc1ccccc1NC1CCN(Cc2ccccc2)CC1 | inactive: 1%
56 | Cc1ccc(C(=O)NCC2(N3CCCCC3)CCCCC2)o1 | inactive: 0%
57 | CCC(CO)(C(=O)OC1CN2CCC1CC2)c1ccccc1 (stereo unspecified) | inactive: 0%
58 | COc1cc(OC)cc(C(=O)NCC2(N3CCOCC3)CCCCC2)c1 | inactive: 1%
59 | COc1cccc(C(=O)N(c2cc(C)cc(C)c2)C2CCN(C(=O)OC(C)(C)C)CC2)c1 | inactive: 0%
60 | CCCOc1ccc(C)cc1CN(CCCl)CCCl | inactive: 0%
61 | CN1CCC(Nc2ccc(Cl)cc2)CC1 | inactive: 0%
62 | CN1CCC(Nc2ccc(F)c(Cl)c2)CC1 | inactive: 2%
63 | CCOc1ncccc1C(=O)NCC1(N2CCOCC2)CCCCC1 | inactive: 1%
64 | CCCOc1ccc(C(=O)NCC2(N(C)C)CCCCC2)cc1 | inactive: 3%
65 | O=C(O)C1(Nc2ccccc2)CCN(Cc2ccccc2)CC1 | inactive: 0%
66 | CC(C)(C)OC(=O)N1CCC(Nc2ccccc2)CC1 | inactive: 0%
